As usually defined, the inhibition is the drop in the measured response relative to a control, in per cent.

Each structure is given as a SMILES string. Counter-ions that a name gives are not always drawn. Where only a bound is given, the exact number is not on record here.

This is an account of results in PMC8958505, “Discovery of Potential Neuroprotective Agents against Paclitaxel-Induced Peripheral Neuropathy” (Journal of Medicinal Chemistry, 2022).

In one series the target is Estrogen ERα (Homo sapiens, UniProt P03372). Description: LeadProfilingScreen: Estrogen ERα. Type of series: binding.
A further series concerns the target Prostanoid EP4 (Homo sapiens, UniProt P35408). Description: LeadProfilingScreen: Prostanoid EP4. It counts as binding.
A further series addresses Endothelin ETA (Homo sapiens, UniProt P25101). Briefly: LeadProfilingScreen: Endothelin ETA. It counts as binding.
Another series has as its target Adenosine A3 (Homo sapiens, UniProt P0DMS8). Briefly: LeadProfilingScreen: Adenosine A3. Type of series: binding.
For a further series, the target named is Bradykinin B1 (Homo sapiens, UniProt P46663). Description: LeadProfilingScreen: Bradykinin B1. It counts as binding.
For a further series, the target named is Muscarinic M3 (Homo sapiens, UniProt P20309). Description: LeadProfilingScreen: Muscarinic M3. Type of series: binding.
The target of a further series is Glutamate, NMDA, Glycine (Rattus norvegicus, UniProt P35439). Description: LeadProfilingScreen: Glutamate, NMDA, Glycine. It counts as binding.
The next series concerns the target T1, CYP 2D6 (Homo sapiens, UniProt P10635).
T1 construct: host or cells: baculovirus-infected insect cells (supersomes)
Description: Cytochrome P450 testing, CYP 2D6. Type of series: in vitro ADME. The note with it: dextromethorphan O-demethylation; read-out: Concentration of inhibition (IC50), CYP 2D6. From the text: (§1) Cytochrome P450 testing of CN016
(§2) The effects of CN016 on the activity of six specific human liver cytochrome P450 isozymes (CYP 1A2, 2C9, 2C19, 2D6, 2E1, 3A4) expressed in baculovirus-infected insect cell supersomes were studied. The reactions used to measure the activity of these enzymes were phenacetin O-deethylation (1A2), diclofenac 4-hydroxylation (2C9), mephenytoin 4-hydroxylation (2C19), dextromethorphan O-demethylation (2D6), chlorzoxazone 6-hydroxylation (2E1) and testosterone 6-hydroxylation (3A4).
(§3) Furafylline, sulfaphenazole, tranylcypromine, quinidine, diethyldithiocarbamate and azamulin were used as reference inhibitors of these enzymes. Incubation mixtures containing no CN016 or reference inhibitors were used as controls. The tested result […]
(§4) Table S4. Result of Cytochrome P450 testing of CN016

A further series relates to Phorbol Ester. Description: LeadProfilingScreen: Phorbol Ester. It counts as binding, mouse. The note with it: 10 μM.
Another series addresses Muscarinic M1 (Homo sapiens, UniProt P11229). Description: LeadProfilingScreen: Muscarinic M1. Type of series: binding.
The target of another series is Adenosine A2A (Homo sapiens, UniProt P29274). Briefly: LeadProfilingScreen: Adenosine A2A. Type of series: binding.
Series [1] concerns panel of selected 67 commercially available receptors and enzymes. Description: 67 off-target study (LeadProfilingScreen), whole panel. The note with it: 10 μM. It counts as binding. An excerpt:
LeadProfilingScreen (Total # of Assays: 67)
To evaluate, in LeadProfilingScreen, the activity of test compound CN168 (Panlabs # 1251879). […]
Summary of Significant Results
Biochemical assay results are presented as the percent inhibition of specific binding or activity throughout the report.
All other results are expressed in terms of that assay's quantitation method.
• For primary assays, only the lowest concentration with a significant response judged by the assays' criteria, is […]
• Where applicable, either the secondary assay results with the lowest dose/concentration meeting the significance […]
• Unless otherwise requested, primary screening in duplicate with quantitative data (e.g., IC50 ± SEM, Ki ± SEM and nH) are shown where applicable for individual requested assays. In screening packages, primary screening in duplicate with semi-quantitative data (e.g., estimated IC50, Ki and nH) are shown where applicable (concentration range of 4 log units); available secondary functional assays are carried out ([…]) and MEC or MIC determined only if active in primary assays >50% at 1 log unit below initial test concentration. […]

The next series addresses T2, CYP 2E1 (Homo sapiens, UniProt P05181).
T2 construct: host or cells: baculovirus-infected insect cells (supersomes)
Description: Cytochrome P450 testing, CYP 2E1. The note with it: chlorzoxazone 6-hydroxylation; read-out: Concentration of inhibition (IC50), CYP 2E1. It counts as in vitro ADME.
From the text: as §1, §2, §3, §4

Another series has as its target Adrenergic α1D (Homo sapiens, UniProt P25100). Briefly: LeadProfilingScreen: Adrenergic α1D. It counts as binding.
The target in another series is Dopamine D2S (Homo sapiens, UniProt P14416). Briefly: LeadProfilingScreen: Dopamine D2S. Type of series: binding.
Series [2] has as its system paclitaxel-induced neuropathy in C57BL/6 mice. Description: Tail immersion test (thermal sensation) in paclitaxel-induced neuropathy. It counts as in vivo, mouse. How it is done: Three behavioral models of paclitaxel-induced neuropathy were used to verify the neuroprotective effect of CN016. Namely, thermal and mechanical nociceptive reactions described below were evaluated by tail immersion and von Frey filament tests, respectively, and motor coordination was assessed with the rotarod performance test (Supporting Information, Figure S1A,B). To mimic the clinical therapeutic regimen, CN016 (5, 10 and 20 mg/kg) was administrated to 7-week-old female C57BL/6 mice by intraperitoneal injection (IP) 1 h prior to each injection of paclitaxel (4.5 mg/kg) on four alternate days (days 1, 3, 5, and 7). Each test’s basal level was recorded before treatment, and additional sessions of behavior tests were performed weekly for five weeks (Figure 4A).
The baseline of every neurological behavior test was measured in 6-week-old C57BL/6J female mice prior to treatment. […] Mechanical hyperalgesia was evaluated by using von Frey filament (#2390, IITC Inc., USA), thermal sensitivity was determined by the tail immersion assay (water temperature: 48–49 °C), and motor coordination was assessed by rotarod (#7750, Ugo Basile Biological Research Apparatus, Italy). After the first drug implantation, the body weight was recorded every 6 days throughout the entire experiment.

The next series concerns the target Opiate κ (OP2, KOP) (Homo sapiens, UniProt P41145). Description: LeadProfilingScreen: Opiate κ (OP2, KOP). It counts as binding.
The target in a further series is Sigma σ1 (Homo sapiens, UniProt Q99720). Briefly: LeadProfilingScreen: Sigma σ1. Type of series: binding.
Another series addresses T3, CYP 1A2 (Homo sapiens, UniProt P05177).
T3 construct: host or cells: baculovirus-infected insect cells (supersomes)
Briefly: Cytochrome P450 testing, CYP 1A2. It counts as in vitro ADME. The note with it: phenacetin O-deethylation; read-out: Concentration of inhibition (IC50), CYP 1A2.
From the text: as §1, §2, §3, §4

A further series addresses Calcium Channel N-Type (Rattus norvegicus, UniProt Q02294). Description: LeadProfilingScreen: Calcium Channel N-Type. It counts as binding.
For series [3], the target named is Transporter, Serotonin (5-Hydroxytryptamine) (SERT) (Homo sapiens, UniProt P31645). Briefly: LeadProfilingScreen: Transporter, Serotonin (SERT). It counts as binding.

For the compound `O=P(O)(O)CCN1CCC(Nc2cc(N3CCOCC3)nc(NCc3cn(CCCO)nn3)n2)CC1` [CN016, {2-[4-(2-{[1-(3-Hydroxy-propyl)-1H-[1,2,3]triazol-4-ylmethyl]-amino}-6-morpholin-4-yl-pyrimidin-4-ylamino)-piperidin-1-yl]-ethyl}-phosphonic Acid Hydrobromide Salt], the inhibition at 10 µM on Estrogen ERα is -17%; against Prostanoid EP4 it was 4%; against Endothelin ETA, 15%; on Adenosine A3, 0%; against Bradykinin B1 it was -10%; at Muscarinic M3, 0%. Besides, the inhibition at 10 µM at Glutamate, NMDA, Glycine is -5%; against Muscarinic M1, 5%; at Adenosine A2A it was 5%; against Adrenergic α1D, -6%; at Dopamine D2S, 3%; against Opiate κ (OP2, KOP), 3%. Also, the inhibition at 10 µM at Sigma σ1 was 0%; at Calcium Channel N-Type, 1%; in [3] it was -4%. Besides, the IC50 at CYP 2D6, at CYP 2E1 and at CYP 1A2 was more than 100 µM in each case. Moreover, the “Inhibition (%), Phorbol Ester” value in the series with Phorbol Ester is reported as -3%. Also, the “Significant responses (≥ 50% inhibition or stimulation) in the primary assays” value in series [1] was “No significant results noted”. Further, the “inhibitory activity for each tested item of the 67 panel” value in [1] is less than 20%. In series [2] (CN016 5 mg/kg IP 1 h prior to paclitaxel 4.5 mg/kg), the “alleviation of thermal insensitivity (tail immersion)” value is given as “only moderately alleviated”. Further, the “alleviation of paclitaxel-induced thermhypesthesia (tail immersion)” value in series [2] (CN016 10 or 20 mg/kg IP 1 h prior to paclitaxel 4.5 mg/kg, days 1, 3, 5, 7) was “able to alleviate”.
